Target: Peptidyl-prolyl cis-trans isomerase FKBP1A (Homo sapiens, UniProt P62942)
Assay: Compound was tested for its ability to inhibit FK506 binding protein 12 rotamase activity

Protein sequences, listed by entry. Tags and fused reporters are not part of them.
UniProt P62942, whole entry: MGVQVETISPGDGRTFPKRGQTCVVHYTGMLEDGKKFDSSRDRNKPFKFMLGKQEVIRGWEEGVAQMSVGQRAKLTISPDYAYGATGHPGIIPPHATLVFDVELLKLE

Ki: 0.5 nM
SMILES: COc1cc(C(=O)C(=O)N2CCCCC2C(=O)OC(CCCc2ccccc2)CCCc2cccnc2)cc(OC)c1OC (stereo unspecified)
